The numbers were not newly measured in US10755801B2, “Identifying peptides having T-cell-exposed motifs with known frequency of occurrence in a reference database” (IOGENETICS, LLC, priority 2014, dated 2020), which cites them from elsewhere.

Like-named read-outs stand apart in the source and are kept apart here.

In this series the test system is CD8+ responses, HLA A 0201 restricted. The note with it: MART-1 peptides, A*0201, melanoma patients, Kawakami.

Regarding AAGIGILTV, the “CD8+ T-cell response” value is “immunodominant CD8+ epitope”. Besides, under “listed as 27”, the “CD8+ T-cell response” value is on record as “stimulated a response”.
